{
  "source": "paper PMC9504748",
  "about": "“Discovery of Flavonoids as Novel Inhibitors of ATP Citrate Lyase: Structure–Activity Relationship and Inhibition Profiles” (International Journal of Molecular Sciences, 2022)",
  "origin": "cited, not measured here",
  "molecular_target": "T1, ACLY (Homo sapiens, UniProt P53396)",
  "T1 construct": "His; made in house; host or cells: Escherichia coli BL21(DE3)",
  "T1 sequence (P53396 1-1101)": "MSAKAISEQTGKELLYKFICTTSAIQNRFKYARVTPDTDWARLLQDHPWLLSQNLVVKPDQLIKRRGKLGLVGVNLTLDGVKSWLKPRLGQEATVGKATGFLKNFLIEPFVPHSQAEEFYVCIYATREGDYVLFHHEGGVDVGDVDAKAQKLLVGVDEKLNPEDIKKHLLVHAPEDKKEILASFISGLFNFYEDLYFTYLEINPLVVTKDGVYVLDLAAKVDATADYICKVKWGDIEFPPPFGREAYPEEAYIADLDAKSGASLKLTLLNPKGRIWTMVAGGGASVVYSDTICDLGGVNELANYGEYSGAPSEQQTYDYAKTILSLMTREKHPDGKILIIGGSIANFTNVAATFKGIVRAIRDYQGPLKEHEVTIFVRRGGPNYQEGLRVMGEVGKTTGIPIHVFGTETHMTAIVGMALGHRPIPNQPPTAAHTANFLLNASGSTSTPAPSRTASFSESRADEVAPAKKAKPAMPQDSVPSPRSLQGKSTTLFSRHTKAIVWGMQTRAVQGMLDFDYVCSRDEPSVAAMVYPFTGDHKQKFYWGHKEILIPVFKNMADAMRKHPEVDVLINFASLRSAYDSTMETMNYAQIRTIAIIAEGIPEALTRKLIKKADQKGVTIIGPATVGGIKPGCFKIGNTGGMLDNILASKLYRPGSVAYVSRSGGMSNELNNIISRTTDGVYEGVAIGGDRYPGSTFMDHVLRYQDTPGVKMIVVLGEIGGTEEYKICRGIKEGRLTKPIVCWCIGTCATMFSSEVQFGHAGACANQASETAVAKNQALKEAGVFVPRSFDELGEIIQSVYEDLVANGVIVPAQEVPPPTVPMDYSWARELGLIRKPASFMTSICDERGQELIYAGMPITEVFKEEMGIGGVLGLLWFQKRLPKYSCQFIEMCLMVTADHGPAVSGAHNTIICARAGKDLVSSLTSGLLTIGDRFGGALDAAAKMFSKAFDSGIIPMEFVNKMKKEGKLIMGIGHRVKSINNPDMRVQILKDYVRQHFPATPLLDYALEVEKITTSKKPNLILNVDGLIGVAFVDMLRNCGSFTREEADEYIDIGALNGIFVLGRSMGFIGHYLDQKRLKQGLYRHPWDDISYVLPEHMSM",
  "conditions": "natural ACLY inhibitors, discussion; no reference given; cited from earlier work",
  "data": [
    {"substance": "purporone", "values": [
      {"measurement": "IC50", "result": 8, "unit": "µM"}
    ]}
  ]
}
